Data from ChEMBL document CHEMBL1148282, “A novel series of piperidin-4-yl-1,3-dihydroindol-2-ones as agonist and antagonist ligands at the nociceptin receptor” (2004).

Assay: [Agonist concentration]/(dose ratio - 1) was determined

Row | Structure (SMILES) | Ke [nM]
1 | O=C1Cc2ccccc2N1C1CCN(CC2CCCCCCC2)CC1 | 15.3
2 | CC1(C)C2CCC(CN3CCC(N4C(=O)Cc5ccccc54)CC3)C1C2 (configuration not stated) | 67.1
